The target of the test is Parkin ligase (Homo sapiens, UniProt O60260). Nature of the test: Activity-Based Probe Assay using Ubiquitin vinyl sulfone probe (TR-FRET). The settings on record: read-out: Probe Assay EC50 (μM) [Example 2]; heat activated Parkin, HA-Ub-VS probe, activation EC50.

Amino acid sequences for entries named in this document (tags omitted).
UniProt O60260, whole entry: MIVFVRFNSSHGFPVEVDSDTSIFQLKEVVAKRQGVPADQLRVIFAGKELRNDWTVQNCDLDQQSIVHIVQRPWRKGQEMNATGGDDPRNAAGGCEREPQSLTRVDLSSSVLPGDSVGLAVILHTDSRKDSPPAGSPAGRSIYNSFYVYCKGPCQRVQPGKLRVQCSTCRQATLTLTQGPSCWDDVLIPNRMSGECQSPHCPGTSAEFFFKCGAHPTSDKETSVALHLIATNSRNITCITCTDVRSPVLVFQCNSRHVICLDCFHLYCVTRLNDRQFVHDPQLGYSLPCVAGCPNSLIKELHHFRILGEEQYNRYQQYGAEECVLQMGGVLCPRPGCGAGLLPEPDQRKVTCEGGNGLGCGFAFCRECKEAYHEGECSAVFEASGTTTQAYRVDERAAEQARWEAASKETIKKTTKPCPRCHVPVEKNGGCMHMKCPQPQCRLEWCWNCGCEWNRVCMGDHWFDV

For `C#Cc1ccc(C(=O)Nc2nc(NC(=O)c3ccc(N=[N+]=[N-])cc3)n(-c3ccccc3)n2)cc1`, the EC50 is 3 µM.

(Values after patent publication US10889553B2, “Asymmetric triazole benzamide derivatives and the compositions and methods of treatment regarding the same” (NysnoBio Ireland DAC, priority 2017, dated 2021).)
